Literature values in US20200069786A1, “COMPOSITION AND PROCESS FOR PREPARING VACCINE” (TREOS BIO ZRT., priority 2018, published 2020).
Like-named read-outs stand apart in the source and are kept apart here.

Legend:
TSA = conditions: cited from earlier work
[1] = test system: subjects of 64 clinical studies; conditions: published clinical trials; proportion of subjects in the study population with T cell responses induced by the study vaccine; cited from earlier work

Substance	TSA Expression Rate (ER) (TSA; BRAIN) [%]	TSA Expression Rate (ER) (TSA; BREAST) [%]	TSA Expression Rate (ER) (TSA; HCC) [%]	TSA Expression Rate (ER) (TSA; LUNG) [%]	TSA Expression Rate (ER) (TSA; OVARIAN) [%]	TSA Expression Rate (ER) (TSA; PANCREATIC) [%]	TSA Expression Rate (ER) (TSA; THYROID) [%]	Expression Rate (ER) % (TSA; TSA expression rate in BLADDER cancer) [%]	Expression Rate (ER) % (TSA; TSA expression rate in CRC) [%]	Expression Rate (ER) % (TSA; TSA expression rate in Cervical cancer) [%]	Expression Rate (ER) % (TSA; TSA expression rate in Esophageal) [%]	Expression Rate (ER) % (TSA; TSA expression rate in GASTRIC cancer) [%]	Expression Rate (ER) % (TSA; TSA expression rate in HEAD and NECK) [%]	Expression Rate (ER) % (TSA; TSA expression rate in Kidney) [%]	Expression Rate (ER) % (TSA; TSA expression rate in MELANOMA) [%]	Expression Rate (ER) % (TSA; TSA expression rate in PROSTATE cancer) [%]	IRR [1] [%]
KOC1	38	8	66	62	43	54	65	20	65	68	74	52	29	22	46	0	
Her2/neu peptide vaccine (p369)																	62
